Experimental data from paper PMC4037836 (British Journal of Cancer, 2014).

Test system: CYP3A4
Type: in vivo, human
Settings: increase in paclitaxel AUC and Cmax less than two-fold in the presence of pazopanib and lapatinib

Substance: 5-((4-((2,3-dimethyl-2H-indazol-6-yl)methylamino]-2-pyrimidinyl)amino)-2-methyl-benzenesulfonamide [pazopanib]
- Inhibition of CYP3A4 (classification): weak inhibitors
